Results from patent publication US12043670B2, “Anti-BCMA antibody-drug conjugates and methods of use” (Eisai R&D Management Co., Ltd., priority 2020, dated 2024).

System: OPM2 tumors
Assay: In vivo mRNA splicing modulation (NanoString), OPM2 tumors
Parameters: species or system mouse
Conditions: 10 mg/kg, 24 hours and 48 hours post-dose
Excerpt: Two human myeloma cell lines, OPM2 and MOLP8, were subcutaneously inoculated into female CB17-Scid mice (5×10^6 cells/mouse), and tumors were allowed to reach ˜300-500 mm^3 in volume prior to randomization into treatment groups. Mice were then randomly assigned to receive a single intravenous dose of either unconjugated reference antibody (AB200) or an anti-BCMA ADC. At predetermined time points after dosing, mice were euthanized according to institutionally approved protocols and tumor tissue was collected. Tumor fragments were then flash-frozen in liquid nitrogen or frozen following incubation in RNAlater preservation solution.
Total tumor RNA was isolated from tumor samples using the MagMAX™-96 for Microarrays Total RNA Isolation kit and MagMax instrument according to the manufacturer's instructions. RNA was quantified by UV absorbance on a NanoDrop spectrophotometer. Gene expression analysis was performed on the NanoString nCounter gene expression platform (NanoString Technologies). A custom code set consisting of a 70-gene panel with 61 genes to measure splicing changes induced by ADC and nine housekeeping genes was used (FIG. 5). […]

B1: AB200-ADL5-D4 (conjugate)
heavy: QVQLVQSGAEVKKPGSSVKVSCKASGGTFSNYWMHWVRQAPGQGLEWMGATYRGHSDTYYNQKFKGRVTITADKSTSTAYMELSSLRSEDTAVYYCARGAIYDGYDVLDNWGQGTLVTVSSASTKGPSVFPLAPSSKSTSGGTAALGCLVKDYFPEPVTVSWNSGALTSGVHTFPAVLQSSGLYSLSSVVTVPSSSLGTQTYICNVNHKPSNTKVDKKV[omitted - human IgG1 Fc]
light: DIQMTQSPSSLSASVGDRVTITCSASQDISNYLNWYQQKPGKAPKLLIYYTSNLHSGVPSRFSGSGSGTDFTLTISSLQPEDFATYYCQQYRKLPWTFGQGTKLEIKRTVAAPSVFIFPPSDEQLKSGTASVVCLLNNFYPREAKVQWKVDNALQSGNSQESVTEQDSKDSTYSLSSTLTLSKADYEKHKVYACEVTHQGLSSPVTKSFNRGEC
splicing modulation in tumors relative to AB200 antibody alone: statistically significant splicing modulation
